Values of other authors, collected in publication PMC8464905, “Novel c-Jun N-Terminal Kinase (JNK) Inhibitors with an 11H-Indeno[1,2-b]quinoxalin-11-one Scaffold” (Molecules, 2021).
Like-named read-outs stand apart in the source and are kept apart here.

Chains of the proteins cited; added tags and fusions are not shown. Lines headed by an entry give the natural chain unless they say otherwise; changes in a name come on top.
UniProt P45983: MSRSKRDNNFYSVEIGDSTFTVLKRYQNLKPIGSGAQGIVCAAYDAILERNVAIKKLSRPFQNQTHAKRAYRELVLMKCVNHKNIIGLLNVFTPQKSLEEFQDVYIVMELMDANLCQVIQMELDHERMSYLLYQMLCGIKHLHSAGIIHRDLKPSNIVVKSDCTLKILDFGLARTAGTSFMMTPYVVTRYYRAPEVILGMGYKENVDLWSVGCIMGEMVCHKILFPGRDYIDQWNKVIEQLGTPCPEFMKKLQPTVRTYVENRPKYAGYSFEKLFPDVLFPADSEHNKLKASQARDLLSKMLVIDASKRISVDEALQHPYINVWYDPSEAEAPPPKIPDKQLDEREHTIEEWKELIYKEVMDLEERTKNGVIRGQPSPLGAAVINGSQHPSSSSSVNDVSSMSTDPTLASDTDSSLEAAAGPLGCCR
UniProt P45984: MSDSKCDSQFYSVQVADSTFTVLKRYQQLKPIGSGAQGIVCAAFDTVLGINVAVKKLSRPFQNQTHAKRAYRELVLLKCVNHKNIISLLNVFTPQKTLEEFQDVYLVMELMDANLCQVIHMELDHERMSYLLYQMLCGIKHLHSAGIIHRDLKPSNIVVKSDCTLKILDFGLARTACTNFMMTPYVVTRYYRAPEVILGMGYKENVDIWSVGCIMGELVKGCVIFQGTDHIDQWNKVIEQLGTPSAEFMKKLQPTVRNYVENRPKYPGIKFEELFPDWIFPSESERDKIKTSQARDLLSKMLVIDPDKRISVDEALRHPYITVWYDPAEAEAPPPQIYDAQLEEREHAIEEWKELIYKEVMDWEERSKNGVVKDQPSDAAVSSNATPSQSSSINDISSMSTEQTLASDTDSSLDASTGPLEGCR
UniProt P53779: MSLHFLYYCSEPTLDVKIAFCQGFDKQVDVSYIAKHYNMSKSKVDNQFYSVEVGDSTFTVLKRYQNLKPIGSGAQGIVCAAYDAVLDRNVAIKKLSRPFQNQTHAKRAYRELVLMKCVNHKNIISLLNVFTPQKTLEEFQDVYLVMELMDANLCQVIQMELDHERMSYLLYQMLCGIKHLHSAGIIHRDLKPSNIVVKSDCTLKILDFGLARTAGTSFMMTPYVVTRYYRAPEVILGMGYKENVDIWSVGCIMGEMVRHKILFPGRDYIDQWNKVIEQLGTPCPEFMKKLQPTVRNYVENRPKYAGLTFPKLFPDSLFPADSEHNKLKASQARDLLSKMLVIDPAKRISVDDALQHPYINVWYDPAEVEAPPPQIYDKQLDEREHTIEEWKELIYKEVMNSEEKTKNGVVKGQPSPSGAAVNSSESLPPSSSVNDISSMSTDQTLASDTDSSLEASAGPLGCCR

Columns and labels:
Settings in all cases: cited from earlier work
[1] = target: T1, JNK1 (Homo sapiens, UniProt P45983)
T1 construct: purchased Eurofins Pharma Discovery (KINOMEscan)

[2] = target: T2, JNK2 (Homo sapiens, UniProt P45984)
T2 construct: purchased Eurofins Pharma Discovery (KINOMEscan)

[3] = target: T3, JNK3 (Homo sapiens, UniProt P53779)
T3 construct: purchased Eurofins Pharma Discovery (KINOMEscan)

ON=C1c2ccccc2-c2nc3ccccc3nc21 [IQ-1, 11H-indeno[1,2-b]quinoxalin-11-one oxime]
Kd ([1]; previously identified inhibitors, ref [35],[36], read-out: Kd JNK1): 0.2 µM
Kd ([1]; ref [35], read-out: JNK1 Kd): 0.24 µM
Kd ([2]; previously identified inhibitors, ref [35],[36], read-out: Kd JNK2): 0.4 µM
Kd ([2]; ref [35], read-out: JNK2 Kd): 0.36 µM
Kd ([3]; previously identified inhibitors, ref [35],[36], read-out: Kd JNK3): 0.1 µM
Kd ([3]; ref [35], read-out: JNK3 Kd): 0.1 µM
